Antibody variant affinities, Ab-91 heavy chain, assay 2

Target peptide (SARS-CoV-2 spike, HR2 region): PDVDLGDISGINAS

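The library (AAYL51) carries one to three amino acid substitutions per variant, with no insertions or deletions. AlphaSeq pools MATa yeast showing the antibodies with MATalpha yeast showing the peptide. After mating in shaken culture at 30 °C for 16 h, diploids were selected and their barcode pairs sequenced. The ratio of observed to expected reads was calibrated, replicate by replicate, on BCL2-family standards whose Kd was known from biolayer interferometry. Mating was done three times.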

Parent: Ab-91, a human scFv built as VL, a 15-residue (Gly4Ser)3 linker, VH. Only the CDRs of the heavy chain vary.
VL: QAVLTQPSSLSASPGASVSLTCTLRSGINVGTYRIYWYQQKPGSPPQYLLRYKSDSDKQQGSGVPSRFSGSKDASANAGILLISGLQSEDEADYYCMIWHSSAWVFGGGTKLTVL
VH: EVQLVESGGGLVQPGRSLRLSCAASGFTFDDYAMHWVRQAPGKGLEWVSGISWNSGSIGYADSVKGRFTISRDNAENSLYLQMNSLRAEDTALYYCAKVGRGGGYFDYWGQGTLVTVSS

Changes read parent residue, position, new residue, counted from the first residue of the VH shown.
Scale: log10 of Kd in nM, estimated from mating counts; low values are strong binders.
The mean shown is taken over the replicates in which the pair was detected.
"nd" means that the variant was in the library but no mating with the target was seen in that replicate; the authors take this as a sign of poor binding, and no number exists.

K65G R101T G102L: nd, nd, nd (controls 0 of 9).
S63C R101M G102F: nd, nd, nd (controls 0 of 9).
F27S T28Y S55Q: nd, nd, nd (controls 3 of 9).
D62W V99D: nd, nd, nd (controls 0 of 9).
F27A A61Y V64G: 3.77, nd, nd (controls 1 of 9).
S52N D62K S63V: nd, nd, nd (controls 0 of 9).
I51A I58C D62S: nd, nd, nd (controls 0 of 9).
I58E G103Q Y108N: 0.99, 1.19, 0.77 (mean 0.98; controls 0 of 9).
F27W S57W V64H: 5.32, nd, nd (controls 1 of 9).
F27G G50K D107Y: 4.04, nd, 4.94 (mean 4.49; controls 3 of 9).
Y32K H35L G102F: 4.59, nd, 4.82 (mean 4.70; controls 2 of 9).
N54P R101A G102D: nd, nd, nd (controls 3 of 9).
D30T G50T Y108M: 5.88, nd, 4.21 (mean 5.05; controls 5 of 9).
A33M S57A D107I: nd, 4.60, nd (controls 3 of 9).
Y32S A61I Y108T: nd, nd, nd (controls 0 of 9).
Y60N S63Q V99R: nd, nd, nd (controls 0 of 9).
H35V S57F G102A: 5.92, 4.34, nd (mean 5.13; controls 4 of 9).
F29P D62E Y105S: 6.25, 4.60, 5.28 (mean 5.38; controls 3 of 9).
A33D S63L G104A: nd, nd, nd (controls 1 of 9).
T28E G50A G100I: nd, nd, nd (controls 1 of 9).
D31N S57V K65Q: 2.74, 3.05, 3.04 (mean 2.94; controls 1 of 9).
G59W Y105K D107M: nd, 6.16, nd (controls 2 of 9).
H35Q G103A D107S: 4.91, 4.49, 5.77 (mean 5.06; controls 7 of 9).
M34H G102W G104H: 4.49, 5.36, 3.81 (mean 4.55; controls 4 of 9).
S57W I58M D62M: nd, nd, 3.78 (controls 0 of 9).
R101P D107P Y108P: nd, nd, nd (controls 1 of 9).
H35I W53I G59A: nd, nd, nd (controls 0 of 9).
G103I D107S: nd, nd, 2.56 (controls 0 of 9).
D30R G56V: 5.69, nd, 4.58 (mean 5.13; controls 4 of 9).
F27D S57E V99H: 6.14, nd, 4.63 (mean 5.38; controls 1 of 9).
T28Q K65S Y105H: 2.82, 3.91, nd (mean 3.36; controls 0 of 9).
V99T G104R: 5.13, 4.64, nd (mean 4.88; controls 1 of 9).
G26H I51L V99C: nd, nd, nd (controls 1 of 9).

In this assay the parent's reference entry averaged 1.86; its copy inside this library read 0.88.
Background: pairings of library AAYL51 with three empty control strains gave a value in 21% of cases (median 4.54, 5th percentile 3.26). Values in that range, when seen in few replicates, are hard to tell from nonspecific mating. Also given: how often the same scFv was detected with the empty control strains.

Data: MIT Lincoln Laboratory AlphaSeq set, Engelhart et al. 2022, doi:10.1038/s41597-022-01779-4, as distributed in FLAb.